Measured values from PubChem BioAssay AID493003 (Sanford-Burnham Center for Chemical Genomics, 2010).

Each molecule was assayed on S. cerevisiae tim10-1 mutant growth, luminescence (assay: tim10-1 yeast growth inhibition potency – luminescence, S. cerevisiae, uHTS hits, dose response (AID 493003);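 also: yeast growth measured after about 22 hours at 25 °C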).

| SMILES | IC50 |
| --- | --- |
| O=C(NCCc1ccc(Cl)cc1)C1CCN(S(=O)(=O)c2cccs2)CC1 | 29.1 µM |
| CCCN(CCC)S(=O)(=O)c1ccc(NC(=O)COc2ccccc2)cc1 | 40.5 µM |
| COc1cccc(NC(=S)N/N=C2\CC3CCC2(C)C3(C)C)c1 (centres undefined) | 27.4 µM |
| CCCOc1cccc(-c2cc(-c3n[nH]c(=S)n3CC)c3ccccc3n2)c1 | 25.2 µM |
